Laboratory results from patent US20100004257A1, “Identification of Biomarkers Predictive of Dasatinib Effects in Cancer Cells” (University of South Floria, priority 2007, published 2010).

Legend:
[1] = tested on: pAkt, pSTAT3, cleaved PARP in HCC827 cells; assay: Western analysis of pAkt, pSTAT3 and cleaved PARP; type: cell-based, Human; conditions: 24 hours
[2] = tested on: WT EGFR, L858R EGFR, and del L747-E749; A750P EGFR in HEK293 cells; assay: EGFR phosphorylation in transfected HEK293 cells; type: cell-based; conditions: 3 hours, FIG. 10
[3] = tested on: pSrc in A549 or H358 cells with WT EGFR; assay: Western analysis of Src phosphorylation status; type: cell-based, Human; conditions: 3 hours, gefitinib 1 μmol/L, dasatinib 500 nmol/L
[4] = tested on: cells with WT EGFR (A549 and H1299) and gefitinib resistant EGFR (H1975) mutation; assay: Tumor cell invasion, Boyden chambers; type: cell-based, Human; conditions: gefitinib 1 μmol/L, dasatinib 500 nmol/L, FIG. 14
[5] = tested on: pTyr416 Src (pSrc) family in HCC827 cells; assay: Western analysis of Src phosphorylation status; type: cell-based, Human; conditions: 24 hours, dasatinib at 50 nmol/L
[6] = tested on: cells with EGFR mutants sensitive to gefitinib (H3255, H1650, HCC827, PC9); assay: Apoptosis (Apo-BrdU incorporation); type: cell-based, Human; conditions: 500 nmol/L, 36 hours, FIG. 4
[7] = tested on: WT EGFR cells (A549 and H358) and gefitinib resistant H1975 cells; assay: Apoptosis (Apo-BrdU incorporation); type: cell-based, Human; conditions: 500 nmol/L, 36 hours, FIG. 4
[8] = tested on: lung cancer cells with EGFR mutation that are resistant to EGFR TKI; assay: Apoptosis and cell cycle in cells with acquired resistance to erlotinib; type: cell-based, Human; conditions: EGFR mutant cells resistant to EGFR TKI
[9] = tested on: cells with EGFR mutation, including H1975; assay: Cell cycle (propidium iodide staining and flow cytometry); type: cell-based, Human; conditions: 500 nmol/L; 16 to 24 hours; FIG. 5
[10] = tested on: EGFR; assay: Western analysis of EGFR phosphorylation status in lung cancer cell lines; type: cell-based, Human; conditions: cell lines evaluated; indicated concentrations; 24 hours; FIG. 9

## COc1cc2ncnc(Nc3ccc(F)c(Cl)c3)c2cc1OCCCN1CCOCC1 [gefitinib]
[1]
  pAkt, PARP cleavage and pSTAT3 results compared with dasatinib: similar
[2]; 1 μmol/L
  EGFR phosphorylation: completely inhibited EGFR phosphorylation
[3]
  pSrc: unable to inhibit pSrc
[4]
  tumor cell invasion: no effect compared with control
[5]
  pSrc: no changes

## Cc1nc(Nc2ncc(C(=O)Nc3c(C)cccc3Cl)s2)cc(N2CCN(CCO)CC2)n1 [dasatinib, N-(2-chloro-6-methylphenyl)-2-[[6-[4-[(2-hydroxyethyl)-1-pipperazinyl]-2-methyl-4-pyrimidinyl]amino]-5-thiazolecarboxamide, monohydrate]
[6]
  apoptosis: resulted in apoptosis
[1]; 50 nmol/L
  PARP cleavage: induces PARP cleavage
  pAkt: inhibits pAkt
[1]
  pSTAT3: modest changes
[2]; 500 nmol/L
  EGFR phosphorylation: inhibited EGFR phosphorylation, although not to the extent seen with gefitinib
[7]
  apoptosis: minimal apoptosis
[8]
  apoptosis: do not demonstrate significant amounts of apoptosis
  cell cycle: dose-dependent G1 cell cycle arrest
[3]
  pSrc: completely inhibits pSrc
[4]
  tumor cell invasion: significant inhibitory effect
[9]
  DNA synthesis (cell cycle): inhibits DNA synthesis
[10]
  EGFR phosphorylation status: concentration-dependent inhibition
[5]
  pSrc: inhibits the lowest mobility pSrc band
